PglD inh: blocks C. jejuni PglD acetyltransferase activity | purified PglD enzyme, DTNB colorimetric CoA detection | inhibition, % at 12.5 µM | hit rate 0.098% among 360,000; in the data active = inhibition above about 16%, passing the limit was not always enough
PDI inh: inhibitors of human protein disulfide isomerase | AID 588391 | hit rate 0.052% among 350,000 | inhibition, % at 10 µM | P07237 | PDI insulin aggregation turbidity, A650, 90 min;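 active = mean inhibition across replicates of 30% or more, whatever share of single replicates reach that level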
ARNT-TACC3 inh: disruptors of human ARNT/TACC3 interaction. Q9Y6A5. AlphaScreen His-ARNT PAS-B/GST-TACC3 binding, luminescence; TACC3 fragment carries E629A point mutation. inhibition, % at 9.99 µM. hit rate 0.66% among 390,000. AID 623870;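 active = mean inhibition of replicates at least 50% and at least half of replicates each reaching 50%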;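 note: 0% = complete ARNT plus TACC3 wells and 100% = ARNT alone without TACC3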
ERp5 block: blocks human ERp5 reductase activity on insulin; inhibition, % at 9.99 µM; Q15084; ERp5 insulin aggregation, absorbance 650 nm, 90 min; hit rate 0.05% among 350,000;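 active = mean replicate inhibition above about 25%, with every replicate also reaching it, limit read from the data, passing the limit was not always enough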
UUG fidelity: yeast start codon fidelity modulation; activity score, % at 18.7 µM; actives 0.13% (n = 350,000); S. cerevisiae UUG-firefly luciferase reporter, luminescence/redox ratio; AID 602363;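 active means replicate mean at a twofold rise or more, about +100% in these data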;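 further: firefly luciferase made from a UUG start codon reports start codon fidelity; reporter light over untreated wells divided by growth signal over untreated wells; some hits fall short of that in this replicate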
FGF22 binding: shifts melting point of recombinant human FGF22. recombinant FGF22 thermal shift, SYPRO orange fluorescence; percent of sucrose octasulfate shift, DMSO zero. activity (Tm shift, normalised), % at 9.99 µM. hit rate 1.5% among 340,000. Q9HCT0;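 active = mean Tm shift, scaled 0 neutral to 100 positive control, at about 1.3% or above, every replicate too, limit read from the data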
Numbers without * were called inactive. Rows were chosen to be rich in hits. Some 1.9% of all compounds tested hit in one or more screens of this group.

O=C(CNc1ccc2ccccc2c1)N/N=C/c1ccc([N+](=O)[O-])o1 was read as PglD inh 0, PDI inh -5, ARNT-TACC3 inh 3, ERp5 block 3, UUG fidelity -4 and FGF22 binding 43*.
`CC(=O)Nc1c(C)ccc2nsnc12` gave PDI inh 2 and ARNT-TACC3 inh -5.
Screening Cc1ccc2nsnc2c1NC(=O)c1ccc([N+](=O)[O-])cc1 returned PDI inh 20, ARNT-TACC3 inh -2, ERp5 block -3 and FGF22 binding 43*.
C[C@@H]1CN([C@@H](C)CO)C(=O)Cc2cc(NC(=O)Nc3ccccc3)ccc2O[C@H]1CN(C)Cc1ccc2c(c1)OCO2 was read as PglD inh -1, ARNT-TACC3 inh 8, ERp5 block -1, UUG fidelity 14 and FGF22 binding -1.
For COc1ccc(O)c(/C=N/n2c(-c3ccco3)csc2=Nc2cccnc2)c1 the results were PDI inh 7 and ARNT-TACC3 inh 62*.
For COCCn1c(-c2ccco2)csc1=Nc1cccnc1 the results were PDI inh -4, ARNT-TACC3 inh 10, ERp5 block 2 and FGF22 binding 0.
For COc1cc(C(=O)N/C(=C\c2cn(S(=O)(=O)N(C)C)c3ccccc23)C(=O)NCCCO)cc(OC)c1OC the results were PDI inh 3, ARNT-TACC3 inh -2, ERp5 block -6 and FGF22 binding 44*.
O=C(Nc1nnc(-c2ccc(Cl)cc2)o1)c1ccc(N2C(=O)CCC2=O)cc1 was read as PDI inh -7, ARNT-TACC3 inh -23, ERp5 block -4 and FGF22 binding 1.
For O=C(Nc1cccc(-c2nnc(-c3ccco3)o2)c1)c1ccccc1 the results were PglD inh 5, PDI inh 1, ARNT-TACC3 inh -1, ERp5 block -2, UUG fidelity 15 and FGF22 binding 43*.
`CC(=O)Oc1ccc(C(=O)Nc2cccc(-c3nnc(-c4ccco4)o3)c2)cc1` gave PglD inh 1, PDI inh 2, ARNT-TACC3 inh -6, ERp5 block 4, UUG fidelity -4 and FGF22 binding 0.
For Cc1nn(-c2ccccc2)c(C)c1C(=O)Nc1nnc(-c2ccco2)o1 the results were PglD inh 2, PDI inh -6, ARNT-TACC3 inh 49* and UUG fidelity -26.
`O=C(Nc1nnc(-c2ccco2)o1)c1ccc(N2C(=O)CCC2=O)cc1` gave PDI inh 1, ARNT-TACC3 inh 58*, ERp5 block 2 and FGF22 binding 1.
For CCC(=O)N[C@H]1C=C[C@@H](CC(=O)NCc2cc(F)cc(F)c2)O[C@@H]1CO the results were PglD inh 2, ARNT-TACC3 inh -6, ERp5 block 11, UUG fidelity -2 and FGF22 binding 0.
For Cc1noc(C)c1NC(=O)N[C@@H]1CC[C@H](CCNC(=O)C2CCC2)O[C@H]1CO the results were PglD inh 4, ARNT-TACC3 inh -3, ERp5 block 4, UUG fidelity -5 and FGF22 binding 0.
`O=C(O)CN1CCN(CC(=O)O)CCN(CC(=O)O)CCN(CC(=O)O)CC1` gave PglD inh -2, PDI inh -6, ARNT-TACC3 inh 60*, ERp5 block 1, UUG fidelity -13 and FGF22 binding 0.
`O=C(O)CN1CCNCCN(CC(=O)O)CCNCC1` gave PDI inh -47, ARNT-TACC3 inh -4, ERp5 block -7 and FGF22 binding 43*.
Screening O=C(O)CN1C(=O)CNC1=O returned PglD inh -2, PDI inh -5, ARNT-TACC3 inh -4 and UUG fidelity -21.
CN1C(=O)c2cc(NC(=O)c3ccccc3)ccc2OC[C@H]2O[C@@H](CC(=O)O)CC[C@H]21 was read as PglD inh 3, ARNT-TACC3 inh 4, ERp5 block 1, UUG fidelity -4 and FGF22 binding 0.
For O=C(CN1CCCCC1)Nc1ccc(S(=O)(=O)c2ccc(NC(=O)CN3CCCCC3)cc2)cc1 the results were PglD inh 3, PDI inh -1, ARNT-TACC3 inh 4, ERp5 block 8, UUG fidelity -25 and FGF22 binding 44*.
NS(=O)(=O)c1ccc(NC(=O)CN2CCCCC2)cc1 was read as PglD inh 3, PDI inh 5, ARNT-TACC3 inh -1 and UUG fidelity 6.

Next part; the last four above are carried over.
Screening O=C(O)CN1C(=O)CNC1=O returned PglD inh -2, PDI inh -5, ARNT-TACC3 inh -4 and UUG fidelity -21.
CN1C(=O)c2cc(NC(=O)c3ccccc3)ccc2OC[C@H]2O[C@@H](CC(=O)O)CC[C@H]21 was read as PglD inh 3, ARNT-TACC3 inh 4, ERp5 block 1, UUG fidelity -4 and FGF22 binding 0.
For O=C(CN1CCCCC1)Nc1ccc(S(=O)(=O)c2ccc(NC(=O)CN3CCCCC3)cc2)cc1 the results were PglD inh 3, PDI inh -1, ARNT-TACC3 inh 4, ERp5 block 8, UUG fidelity -25 and FGF22 binding 44*.
NS(=O)(=O)c1ccc(NC(=O)CN2CCCCC2)cc1 was read as PglD inh 3, PDI inh 5, ARNT-TACC3 inh -1 and UUG fidelity 6.
Screening NS(=O)(=O)c1ccc(NCC2COc3ccccc3O2)c([N+](=O)[O-])c1 (stereo not given) returned PDI inh 4, ARNT-TACC3 inh 15, ERp5 block 6 and FGF22 binding 43*.
For Cc1ccc(C)c(-n2c(SCC(=O)N3CCCC3)nnc2-c2ccccn2)c1 the results were PglD inh -1, PDI inh 1, ARNT-TACC3 inh 46* and UUG fidelity 0.
Screening O=Nc1c(O)[nH]c2ccc(Cl)c(Cl)c12 returned PglD inh -1, PDI inh -5, ARNT-TACC3 inh 59*, ERp5 block 4, UUG fidelity 6 and FGF22 binding 0.
For COCCCNC(=O)c1ccccc1Oc1ccccc1 the results were PglD inh -8, PDI inh 4, ARNT-TACC3 inh -6 and UUG fidelity -11.
`COCCCNC(=O)c1ccc2c3c(onc13)-c1ccccc1C2=O` gave PglD inh -3, PDI inh -2, ARNT-TACC3 inh 31* and UUG fidelity -21.
Screening CCCCCc1nnc(NC(=O)Cc2ccc([N+](=O)[O-])cc2)s1 returned PDI inh -7, ARNT-TACC3 inh -1, ERp5 block -13 and FGF22 binding 43*.
Screening CCCCCc1ccc(-c2nnc(N)s2)cc1 returned PDI inh -2, ARNT-TACC3 inh 5, ERp5 block 5 and FGF22 binding 43*.
`COC1=C(Nc2ccccc2OC)C(=O)c2ccccc2C1=O` gave PglD inh 4, PDI inh 0, ARNT-TACC3 inh 37, ERp5 block 1, UUG fidelity 4 and FGF22 binding 0.
For COC1=C(Nc2ccccc2)C(=O)C(OC)=C(Nc2ccccc2)C1=O the results were PglD inh 1, PDI inh -9, ARNT-TACC3 inh -12, ERp5 block -1, UUG fidelity -2 and FGF22 binding 44*.
COc1ccc(S(=O)(=O)Nc2ccc3c(c2)C(=O)N([C@H](C)CO)C[C@H](C)[C@@H](CN(C)C(=O)NC2CCCCC2)OCCCC[C@@H](C)O3)cc1 was read as PglD inh 1, ARNT-TACC3 inh -12, ERp5 block -3, UUG fidelity -1 and FGF22 binding 0.
Screening CCOc1cccc(=O)c2c(C)n(CC(=O)c3ccccc3)c(C)c12 returned PDI inh -6, ARNT-TACC3 inh 2, ERp5 block 3 and FGF22 binding 0.
For COc1cccc(=O)c2c(C)n(CC(=O)c3ccccc3)c(C)c12 the results were PglD inh -4, PDI inh -2, ARNT-TACC3 inh -4, ERp5 block 3, UUG fidelity -11 and FGF22 binding 44*.

Assay outcomes from PubChem BioAssay.
